Key:
[1] = biological target: Cytochrome P450 1A2 (Homo sapiens, UniProt P05177); assay: Inhibition of human recombinant CYP1A2 assessed as metabolism of 3-cyano-7-ethoxycoumarin after 30 mins by fluorescence assay; assay type: ADME
[2] = biological target: Aromatase (Homo sapiens, UniProt P11511); assay: Inhibition of human recombinant aromatase using 7-methoxy-trifluoromethylcoumarin as substrate assessed as formation of fluorescent metabolite after 30 mins by fluorescence assay
Procedure, shortened: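 Recombinant human CYP19 with MFC substrate, converted to fluorescent HFC, in 0.1 M potassium phosphate pH 7.4. NADPH-regenerating mix (NADP⁺, MgCl₂, glucose-6-phosphate, G6PDH); compound prewarmed 10 min at 37 °C, then 30 min reaction stopped with Tris base in acetonitrile. Activity as % of vehicle control; IC50 from one-site competition fit; Ki from Lineweaver–Burk data by nonlinear regression.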

By UniProt entry, the sequences of proteins in these tests, tags left out. Where a name states a change or a piece, a line headed by the entry shows the natural chain unless it says otherwise.
UniProt P05177, whole entry: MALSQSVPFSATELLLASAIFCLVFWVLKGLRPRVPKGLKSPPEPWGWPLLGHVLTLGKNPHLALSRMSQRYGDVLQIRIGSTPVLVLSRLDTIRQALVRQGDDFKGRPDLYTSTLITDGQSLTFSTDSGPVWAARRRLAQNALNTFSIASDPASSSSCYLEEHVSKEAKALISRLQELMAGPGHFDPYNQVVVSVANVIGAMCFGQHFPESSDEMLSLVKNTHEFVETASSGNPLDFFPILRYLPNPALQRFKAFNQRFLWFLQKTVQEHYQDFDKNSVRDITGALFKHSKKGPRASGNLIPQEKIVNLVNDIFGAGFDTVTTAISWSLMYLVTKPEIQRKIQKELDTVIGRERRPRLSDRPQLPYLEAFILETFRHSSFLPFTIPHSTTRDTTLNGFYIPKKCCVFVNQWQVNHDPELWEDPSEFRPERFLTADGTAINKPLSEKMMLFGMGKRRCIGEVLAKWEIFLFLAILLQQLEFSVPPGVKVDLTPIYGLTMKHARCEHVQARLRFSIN
UniProt P11511: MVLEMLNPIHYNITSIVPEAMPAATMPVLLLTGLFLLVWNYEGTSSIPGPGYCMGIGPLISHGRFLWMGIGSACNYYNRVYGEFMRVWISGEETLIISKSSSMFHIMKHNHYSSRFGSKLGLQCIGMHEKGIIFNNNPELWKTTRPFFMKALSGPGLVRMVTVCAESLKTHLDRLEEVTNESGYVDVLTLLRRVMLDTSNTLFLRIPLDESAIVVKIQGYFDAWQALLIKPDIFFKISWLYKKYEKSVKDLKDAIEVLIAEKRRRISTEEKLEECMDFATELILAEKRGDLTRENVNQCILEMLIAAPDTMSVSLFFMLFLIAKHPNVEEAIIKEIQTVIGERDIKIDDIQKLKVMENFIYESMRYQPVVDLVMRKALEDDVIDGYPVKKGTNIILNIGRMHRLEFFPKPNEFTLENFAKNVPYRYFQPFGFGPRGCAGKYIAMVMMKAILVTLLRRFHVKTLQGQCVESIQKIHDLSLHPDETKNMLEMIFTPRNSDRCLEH

CC/C(=C(/c1ccc(O)cc1)c1ccc(OCCN)cc1)c1ccccc1 (mixture of isomers)
Ki [1]: 76 nM | IC50 [2]: 102 nM

Source: ChEMBL document CHEMBL3421623 (J Med Chem, 2015)
